Literature values as cited in article PMC11070930 (The Biochemical journal, 2024).

Amino acid sequences for entries named in this document (tags omitted).
UniProt P09874, whole entry: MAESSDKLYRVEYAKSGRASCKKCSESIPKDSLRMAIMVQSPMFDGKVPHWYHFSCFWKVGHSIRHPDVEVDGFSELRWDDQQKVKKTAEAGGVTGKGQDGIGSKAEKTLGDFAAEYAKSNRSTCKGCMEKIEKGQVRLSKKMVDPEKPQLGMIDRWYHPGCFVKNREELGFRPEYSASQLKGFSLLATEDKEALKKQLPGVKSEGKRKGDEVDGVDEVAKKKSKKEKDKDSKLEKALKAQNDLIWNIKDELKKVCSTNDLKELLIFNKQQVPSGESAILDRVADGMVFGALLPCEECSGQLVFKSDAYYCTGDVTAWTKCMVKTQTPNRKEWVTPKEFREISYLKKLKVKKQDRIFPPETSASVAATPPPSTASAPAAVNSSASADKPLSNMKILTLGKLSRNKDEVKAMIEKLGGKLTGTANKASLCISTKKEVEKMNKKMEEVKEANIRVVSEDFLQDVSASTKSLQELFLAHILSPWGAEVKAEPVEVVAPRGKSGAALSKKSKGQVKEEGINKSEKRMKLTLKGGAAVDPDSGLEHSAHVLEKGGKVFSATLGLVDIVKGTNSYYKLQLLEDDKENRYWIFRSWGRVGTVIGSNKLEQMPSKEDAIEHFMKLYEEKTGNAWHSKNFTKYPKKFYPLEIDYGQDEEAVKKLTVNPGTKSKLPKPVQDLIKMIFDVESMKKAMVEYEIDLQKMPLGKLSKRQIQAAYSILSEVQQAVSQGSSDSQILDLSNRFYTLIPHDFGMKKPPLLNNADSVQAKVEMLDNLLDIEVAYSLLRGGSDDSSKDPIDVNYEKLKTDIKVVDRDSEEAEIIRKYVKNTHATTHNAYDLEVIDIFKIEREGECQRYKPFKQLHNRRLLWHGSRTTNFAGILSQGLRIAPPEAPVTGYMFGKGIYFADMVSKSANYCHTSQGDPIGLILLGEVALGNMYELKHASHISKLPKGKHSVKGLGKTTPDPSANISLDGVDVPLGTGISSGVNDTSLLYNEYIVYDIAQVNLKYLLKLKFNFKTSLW

Molecular target: PARP1 (Homo sapiens, UniProt P09874)
Details: allosteric-based classification reported earlier; cited from earlier work

## Cn1ncnc1[C@H]1c2n[nH]c(=O)c3cc(F)cc(c23)N[C@@H]1c1ccc(F)cc1 [talazoparib]
  allosteric PARPi type: Type II
